Assay results taken from article PMC4728187, “A fluorescent approach for identifying P2X1 ligands” (Neuropharmacology, 2015).

Target: T1, P2X1 receptors (Homo sapiens, UniProt P51575)
T1 sequence (P51575 1-399): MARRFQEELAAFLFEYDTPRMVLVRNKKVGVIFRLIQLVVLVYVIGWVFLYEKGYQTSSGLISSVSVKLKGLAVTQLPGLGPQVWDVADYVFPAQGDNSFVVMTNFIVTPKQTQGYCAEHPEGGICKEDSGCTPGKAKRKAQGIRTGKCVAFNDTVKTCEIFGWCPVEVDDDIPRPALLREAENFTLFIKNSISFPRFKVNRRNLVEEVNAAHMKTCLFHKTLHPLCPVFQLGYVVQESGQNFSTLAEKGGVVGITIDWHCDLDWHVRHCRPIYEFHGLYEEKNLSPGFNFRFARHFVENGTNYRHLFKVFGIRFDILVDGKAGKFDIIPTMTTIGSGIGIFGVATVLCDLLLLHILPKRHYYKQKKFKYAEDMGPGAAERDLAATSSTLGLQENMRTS
Assay: Confocal microscopy kinetic analysis of Alexa-647-ATP binding at the cell surface
Parameters: expressed in transfected cells
Details: calculated from kinetic values, Eq. (3); read-out: Kd (Kb) from koff/kon
Description: Kinetic parameters were determined according to the following model of a simple bimolecular binding scheme:(2) L+R⇌koffkonLR where L is the free ligand concentration, R is receptor concentration, LR is the ligand–receptor complex and kon and koff are the microscopic association and dissociation rate constants. In a simple scheme such as this, the equilibrium dissociation constant (Kd) is equal to the ratio of dissociation to association rate constants, such that:(3) Kb=k−1/k+1
According to a one site binding model of the type shown, the observed rates of association and dissociation can be used to estimate k+1 and k−1:(4) 1/τoff=k−1 and(5) 1/τon=k+1[L]+k−1 where τon refers to the rate at which fluorescence increases, τoff refers to the rate that fluorescence decreases and [L] is concentration of the ligand used.
Association was determined by measuring the increase in fluorescence seen at the cell surface following the application of different concentrations of Alexa-647-ATP. Dissociation was measured by 3 rapid washes with PBS on Alexa-647-ATP equilibrated cells. Intracellular and background fluorescence was also routinely monitored as a control.

## Alexa-647-ATP
  Kd: 119 nM
